This experiment has as its target T1, Cytochrome P450 2A6 (Homo sapiens, UniProt P11509).
T1 sequence (P11509 whole entry): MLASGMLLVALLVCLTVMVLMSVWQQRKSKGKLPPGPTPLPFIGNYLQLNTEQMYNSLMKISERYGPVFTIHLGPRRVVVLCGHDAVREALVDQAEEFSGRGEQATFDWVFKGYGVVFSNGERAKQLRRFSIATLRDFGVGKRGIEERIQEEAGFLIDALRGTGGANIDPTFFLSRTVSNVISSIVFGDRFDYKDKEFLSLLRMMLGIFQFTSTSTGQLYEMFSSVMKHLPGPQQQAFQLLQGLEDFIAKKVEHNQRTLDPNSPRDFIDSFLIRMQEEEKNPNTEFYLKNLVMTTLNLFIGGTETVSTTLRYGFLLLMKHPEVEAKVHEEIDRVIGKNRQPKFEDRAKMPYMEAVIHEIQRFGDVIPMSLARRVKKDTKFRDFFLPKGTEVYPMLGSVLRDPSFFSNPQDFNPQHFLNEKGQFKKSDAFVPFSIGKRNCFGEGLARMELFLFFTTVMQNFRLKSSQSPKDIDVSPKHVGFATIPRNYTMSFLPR
Kind of experiment: Inhibition of CYP2A6 from human liver microsome by LC-MS/MS analysis. Format: ADME, tissue-based.

A value given as a limit tells only on which side of the number the result lay.

The compound `Cc1cc(CN2CCN(c3c(Br)cnc4[nH]c(N5CCN(C)CC5)nc34)CC2)no1` showed an IC50 above 10 µM.

For the origin of these results see ChEMBL document CHEMBL1155446, “Imidazo[4,5-b]pyridine derivatives as inhibitors of Aurora kinases: lead optimization studies toward the identification of an orally bioavailable preclinical development candidate” (J Med Chem, 2010).
